Source: article PMC4417150, “Selective inhibition of miR-21 by phage display screened peptide” (Nucleic Acids Research, 2015)

T1: wild-type 12-mer peptide ALWPPNLHAWVP (synthetic (phage display Ph.D.-12 …))
T1 chain: ALWPPNLHAWVP

B1: pre-miR-21 (structured_RNA)
RNA: UGUCGGGUAGCUUAUCAGACUGAUGUUGACUGUUGAAUCUCAUGGCAACACCAGUCGAUGGGCUGUCUGACA

Experiments:
pre-miR-21 = test: Tryptophan fluorescence titration (binding isotherm) with pre-miR-21; conditions: peptide 100 nM; for binding to pre-miR-21 (in words): fluorescence titration, pre-miR-21 0 to 2 μM, pH 7.5; for intrinsic fluorescence change in the presence of pre-miR-21: 10 mM Tris-HCl (pH 7.5), 10 mM NaCl, 1 mM MgCl2
Experimental: Intrinsic fluorescence spectra of the tryptophan containing peptides were measured in Fluoromax 4 (Spex) spectrofluorophotometer. The excitation wavelength was set at 285 nm, and the emission spectra were recorded from 330 to 400 nm. In the titration experiments, the peptide concentration was fixed at 100 nM in a buffer containing 10 mM Tris-HCl (pH 7.5), 10 mM NaCl, 1 mM MgCl2 and the concentrations of the pre-miRNAs were varied from 0 to 2 μM. The changes in the fluorescence intensity at 355 nm (maximum wavelength) were monitored as a function of pre-miRNA concentrations. For data analysis, where F is the observed fluorescence intensity at each titrant concentration and Fi is the fluorescence intensities of initial states of titration. The data were fitted in the following equation: […]

[1] = test system: mature miR-21 in MCF-7 cells; test: qRT-PCR for mature miR-21 in MCF-7; assay type: cell-based; conditions: MCF-7, 24 h, 0–10 μM, normalized to U1, three independent experiments
Experimental: Cells maintained in growth medium (DMEM high-glucose, 10% FBS, without antibiotic and antimycotic) were passaged in 24-well plate (5 × 10^4 cells/well), grown to 80% confluency and treated with different concentrations of the peptides. Cells were then incubated at 37°C humidified incubator (5% CO2) for 24 h. Total RNA was isolated from cells using TRizol® Reagent (Invitrogen). Expressions of mature microRNAs were determined by QuantiMir kit. (SBI, catalog number RA660A-1). Primers used for qRT-PCR is listed below: […]
Forward primer: […]
Reverse primer: QuantiMir universal reverse primer
The microRNA expression levels were detected using SYBR-green I PCR master mix (Applied biosystems) on Roche Lightcycler LC 480 and normalized with respect to U1 as a reference gene. The Real Time data analysis was done by using 2(-Delta Delta C(T)) method ([47]).

[2] = target: T1, wild-type 12-mer peptide ALWPPNLHAWVP; test: intrinsic Trp fluorescence titration; Footprinting: 10 mM Tris-HCl pH 7.5, 10 mM NaCl, 1 mM MgCl2, 37 C; fluorescence titration conditions not in the material; conditions: hairpin

Molecule | binding to pre-miR-21 (in words) (pre-miR-21) | intrinsic fluorescence change in the presence of pre-miR-21 (pre-miR-21) | relative level of mature miR-21 [1] | Kd [2] [nM]
LPPAPWNWAHVL [scrambled mutant, control peptide, scrambled mutant: …] | weak binding | did not show significant change | totally ineffective in down regulating miR-21 | 
PVWAHLNPPWLA [reverse mutant, control peptide, reverse mutant: …] | weak binding | did not show significant change | totally ineffective in down regulating miR-21 | 
B1 |  |  |  | 12.7
